# From PubChem BioAssay AID701 (PCMD, 2007)
# Amino acid sequences for entries named in this document (tags omitted). Residues count along the entry.
# UniProt P00748, 20-372 limits assumed: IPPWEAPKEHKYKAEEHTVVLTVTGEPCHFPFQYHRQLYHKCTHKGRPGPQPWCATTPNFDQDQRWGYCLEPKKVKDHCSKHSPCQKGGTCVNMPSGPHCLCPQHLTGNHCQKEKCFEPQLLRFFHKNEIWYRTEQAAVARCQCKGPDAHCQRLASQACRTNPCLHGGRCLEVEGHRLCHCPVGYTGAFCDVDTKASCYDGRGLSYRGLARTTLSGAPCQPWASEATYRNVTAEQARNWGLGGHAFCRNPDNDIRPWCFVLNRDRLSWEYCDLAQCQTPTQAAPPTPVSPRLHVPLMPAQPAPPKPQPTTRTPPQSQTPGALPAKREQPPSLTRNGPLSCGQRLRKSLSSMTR
# UniProt P00748, 373-615 limits assumed: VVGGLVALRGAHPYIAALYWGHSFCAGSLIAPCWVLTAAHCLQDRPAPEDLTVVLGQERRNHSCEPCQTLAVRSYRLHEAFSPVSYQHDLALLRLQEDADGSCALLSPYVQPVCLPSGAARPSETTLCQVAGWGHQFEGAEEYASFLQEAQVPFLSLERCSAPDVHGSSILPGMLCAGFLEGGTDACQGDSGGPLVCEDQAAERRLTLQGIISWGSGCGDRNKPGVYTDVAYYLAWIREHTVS
# The list shows a part of the results, in another mix than the full data. Calls of active or inactive are those of the source. Cut-off read from the data, not from the text of the source: active = inhibition above about 30%; inactive = the rest.
# Biological target: Coagulation factor XII (Homo sapiens) (UniProt P00748)
# Test: human FXIIa protease inhibitors, primary screen, biochemical, single well (AID 701);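 note: 0% = enzyme with vehicle only and 100% = no enzyme blank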
# Conditions: purified human FXIIa, AMC substrate fluorescence, 2 h; at 10 µM; stronger effect = higher value
row,Structure (SMILES),inhibition
1,O=C(NCC1(N2CCOCC2)CCCCC1)c1cc(=O)[nH]c2ccccc12,inactive: -1.93%
2,O=C(NCC1(N2CCOCC2)CCCCC1)c1cc2ccccc2o1,inactive: 2.9%
3,CCC(CO)(C(=O)OC1CN2CCC1CC2)c1ccccc1 (centres undefined),inactive: 1.28%
4,c1ccc(CN2CCC(Nc3ccccc3)CC2)cc1,inactive: -3.84%
